Drawing on patent publication US7402687B2, “Dihydrobenzofuran derivatives and uses thereof” (Wyeth, priority 2005, dated 2008), this text covers Ki and EC50 for 1 substance.

The chains behind the UniProt entries cited, without tags or fusion partners. Residues count along the entry.
UniProt P28335, 33-458: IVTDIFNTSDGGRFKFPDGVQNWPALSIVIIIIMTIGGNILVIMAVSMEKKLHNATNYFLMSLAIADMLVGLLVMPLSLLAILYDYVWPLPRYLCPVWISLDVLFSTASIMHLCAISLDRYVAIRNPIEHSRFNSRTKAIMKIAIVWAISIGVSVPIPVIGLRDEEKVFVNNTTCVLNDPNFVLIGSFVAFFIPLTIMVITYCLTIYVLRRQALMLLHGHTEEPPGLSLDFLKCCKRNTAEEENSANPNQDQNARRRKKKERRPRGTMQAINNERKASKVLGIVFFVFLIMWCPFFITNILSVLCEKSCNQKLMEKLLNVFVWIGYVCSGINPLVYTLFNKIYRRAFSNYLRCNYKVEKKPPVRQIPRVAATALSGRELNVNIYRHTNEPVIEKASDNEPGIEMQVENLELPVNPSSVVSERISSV

Assay [1] addresses T1, human 5-hydroxytryptamine-2C (h5-HT2C) receptor (Homo sapiens, UniProt P28335).
T1 construct: expressed in transfected cells; host or cells: CHO (Chinese Hamster Ovary) cells; membrane preparation
The assay is described as follows: [125I]DOI competition binding at h5-HT2C receptor in transfected CHO cell membranes. As to conditions: [125I]DOI displacement, CHO membranes expressing h5-HT2C; 95% confidence interval in adjacent column.

The next assay has as its target human 5-HT2C receptor (Homo sapiens, UniProt P28335). The conditions noted are these: calcium mobilization, Fluo-3-AM, CHO cells expressing human 5-HT2C; % of maximal 5-HT response.

As a reminder, the Ki is the equilibrium dissociation constant of an inhibitor or competing ligand from its target. Read a low Ki as higher affinity. Broadly, the EC50 is the concentration at which the effect is half-maximal. For the substance “1-(2,5-dimethoxy-4-iodophenyl)isopropylamine [DOI]”, in assay [1], the affinity, expressed as Ki, was 6.2 nM. Also, the EC50 on human 5-HT2C receptor amounted to 0.5 nM.
